Results taken from patent US9283236B2, “Aldosterone induced vascular elastin production” (HUMAN MATRIX SCIENCES, LLC, priority 2008, dated 2016).

Tested on: human fetal cardiac fibroblasts
Experiment: Quantitative assay of [3H]valine-labeled insoluble elastin
Format: cell-based
Conditions: aldosterone 100 nmol/L and 1 μmol/L

Structure (SMILES): C[C@]12CCC(=O)C=C1CC[C@@H]1[C@@H]2[C@@H](O)C[C@]2(C=O)[C@@H](C(=O)CO)CC[C@@H]12 [aldosterone]
- elastin production above physiological levels: led to a further increase in elastin production
